Experimental data published in WO2015077660A1, “Enzyme reactor system enabling enhanced enzymatic digestion, analyte solubility and improved mass spectrometric compatibility” (priority 2013, dated 2014).

System: trypsin
Assay: Insulin digestion in immobilized enzyme reactor, buffer screening (Table 7)
Format: biochemical, porcine
Conditions: IMER, 70°C, 60 s

## NC(CO)(CO)CO [Tris]
0.05M
  Peptide: 1044238
0.1M
  Peptide: 1053652
0.25M
  Peptide: 986402
